The values that follow come from patent publication US20150111836A1, “CELLULAR APOBEC3 PROTEINS AND MODULATORS THEREOF FOR REGULATING DNA REPAIR PROCESSES AND TREATING PROLIFERATIVE DISEASES” (priority 2012, published 2015).

Protein sequences, listed by entry. Tags and fused reporters are not part of them. Lines headed by an entry give the natural chain unless they say otherwise; changes in a name come on top.
UniProt Q9HC16: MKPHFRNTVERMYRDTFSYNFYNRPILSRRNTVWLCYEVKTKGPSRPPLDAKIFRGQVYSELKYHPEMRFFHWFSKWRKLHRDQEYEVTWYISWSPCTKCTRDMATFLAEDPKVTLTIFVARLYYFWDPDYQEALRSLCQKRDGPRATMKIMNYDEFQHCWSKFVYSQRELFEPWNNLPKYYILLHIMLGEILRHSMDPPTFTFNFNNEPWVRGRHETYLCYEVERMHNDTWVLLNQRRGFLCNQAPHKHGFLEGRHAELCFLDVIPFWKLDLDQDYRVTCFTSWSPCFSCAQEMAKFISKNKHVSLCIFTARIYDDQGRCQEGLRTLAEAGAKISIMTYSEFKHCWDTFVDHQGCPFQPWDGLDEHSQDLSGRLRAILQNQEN

The target in assay [1] is T1, A3G (Homo sapiens, UniProt Q9HC16).
T1 construct: Myc (C); His6 (C); made in house; host or cells: 293T cells (human embryonic kidney), transfected with pcDNA3.1-A3GMyc-His6, Ni-NTA purified
The format is biochemical. To be noted: ssDNA pre-incubated with RPA at sub-stoichiometric concentrations, FIG. 5D. As for the experimental part:
Deaminase activity of purified enzyme and virion-associated A3G protein was examined as previously described. Briefly, A3G deamination reactions were performed in a total volume of 10 μl in 25 mM Tris, pH 7.0, and 0.01-1 fmol single-stranded (ss) deoxyoligonucleotide substrate at 37° C. The reaction was terminated by heating to 95° C. for 5 min. One μl of the reaction mixture was used for PCR amplification performed in 20 μl buffer S, using the following program: 1 cycle at 95° C. for 3 min, followed by 30 cycles of annealing at 61° C. for 30 s and denaturing at 94° C. for 30 s. Aliquots of the PCR products (10 μl) were incubated with Eco147I restriction enzyme for 1 h at 37° C. Completion of the restriction reaction was verified by using positive-control substrate containing CCU instead of CCC. Restriction-reaction products were loaded onto 14% gels and separated by PAGE. Gels were stained with SYBR gold nucleic acid stain diluted 1:10,000 in 0.5× Tris-Borate-EDTA buffer (TBE, pH 7.8), visualized by UV light (312 nm), captured by an Olympus C-5050 charge-coupled device (CCD) camera and analyzed by optical density (OD) scan using the TINA2.0 densitometry software. Assessment of A3G entrapped in virions was carried out with concentrated viruses stocks of 3-5 μg of p24/μl) suspended in PBS containing Triton X-100 at final concentration of 0.1% (vv) and 50 μg/ml RNase A (Sigma-Aldrich). […]

Assay [2] deals with SC or SU oligonucleotides (80 nt). The assay can be described thus: Electrophoretic mobility shift assay (EMSA) of ssDNA binding. Conditions: oligonucleotides (80 nt) with a single dU or dC, FIG. 10B. As for the experimental part: SC (10 pmol) was 3′ labeled with dATP-biotin using 10 u terminal deoxynucleotidyl transferase (NEB) in NEBuffer 4 (NEB) supplemented with 0.25 mM CoCl2 and 10 μM dATP-biotin (Invitrogen). Labeled oligos (200 fmol) were incubated with A3G or RPA for 8 or 30 mM, respectively, at room temperature, in EMSA buffer: 50 mM Tris (pH 7.0), 50 mM NaCl, 0.1 mg/mL BSA and 10% glycerol, in 10 μL, reaction volume. Samples were resolved by 6% native PAGE, transferred to a Hybond N nylon membrane (GE Healthcare) using a semi-dry transfer apparatus (Biorad) and UV-crosslinked (302 nm) for 15 min. Following blocking with Casein blocking buffer (Sigma), the membrane was treated with horseradish peroxidase conjugated sterptavidine (Jackson) for 20 mM at RT, washed 6 times with TBS (pH 7.4) and visualized by enhanced chemiluminescence. Alternatively, complementary non-biotinylated oligonucleotides were annealed by heating to 95° C. and slow cooling to room temperature for 1 h. Following incubation with A3G, samples were resolved by PAGE, stained with SYBR Gold (Molecular Probes) and visualized by UV light (302 nm).

Assay [3] addresses T1, A3G. The assay can be described thus: A3G multimer disassembly on ssDNA in the presence of RPA (AFM, EMSA). Conditions: A3G 1 min with ssDNA, then 29 min with RPA, in ice, FIG. 5B. As for the experimental part:
AFM imaging was performed at room temperature using a multimode scanning probe microscope with a Nanoscope 3A controller. AFM images were recorded on freshly cleaved mica surfaces. The mica surfaces were activated with 5 mM MgCl for 1 min and washed with distilled water. For binding assays, purified A3G or RPA and ssDNA were incubated on ice in buffer containing 25 mM Tris (pH 7) in 10 μl reaction volume. Samples were deposited on the mica surface for 1.5 minutes, and washed with distilled water. Images were taken with NSC 15 AFM tips using the tapping mode at their resonant frequency. The images were analyzed with WSxM SPIP software. Stoichiometry of bound A3G proteins was calculated by the flooding option, assuming a monomeric volume of approximately 60 nm^3.
SC (10 pmol) was 3′ labeled with dATP-biotin using 10 u terminal deoxynucleotidyl transferase (NEB) in NEBuffer 4 (NEB) supplemented with 0.25 mM CoCl2 and 10 μM dATP-biotin (Invitrogen). Labeled oligos (200 fmol) were incubated with A3G or RPA for 8 or 30 mM, respectively, at room temperature, in EMSA buffer: 50 mM Tris (pH 7.0), 50 mM NaCl, 0.1 mg/mL BSA and 10% glycerol, in 10 μL, reaction volume. Samples were resolved by 6% native PAGE, transferred to a Hybond N nylon membrane (GE Healthcare) using a semi-dry transfer apparatus (Biorad) and UV-crosslinked (302 nm) for 15 min. […]
In general terms: In EMSA bound probe runs differently from free probe, usually more slowly.

Take “RPA: ubiquitous nuclear heterotrimer required for DNA replication and involved in all major DNA repair pathways”: in the assay with A3G [1], the “inhibition of A3G cytidine deaminase activity by RPA” value was “dose-dependent inhibition”. Also, the “binding to SU relative to SC” value in assay [2] is “twofold more efficient”. Further, the “effect on A3G multimer disassembly” value with A3G [3] is recorded as “inhibited A3G multimer disassembly”.
